Antibody variant affinities, Ab-14 light chain, assay B

Antigen: PDVDLGDISGINAS, a 14-residue peptide of the SARS-CoV-2 spike HR2 region.

The variants keep the heavy chain, the linker and the frameworks of Ab-14 (scFv order VH, three GGGGS repeats, VL).
VH: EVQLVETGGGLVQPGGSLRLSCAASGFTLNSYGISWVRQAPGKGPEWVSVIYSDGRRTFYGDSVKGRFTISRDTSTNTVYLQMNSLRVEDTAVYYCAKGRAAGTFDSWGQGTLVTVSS
VL: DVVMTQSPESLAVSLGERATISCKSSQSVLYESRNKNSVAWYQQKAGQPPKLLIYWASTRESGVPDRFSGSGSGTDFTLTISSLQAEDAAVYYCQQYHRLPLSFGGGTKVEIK

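The variants were designed computationally from a first round of random CDR variants and then made and measured. Several design methods are mixed in this list. The scFvs were displayed on barcoded MATa yeast, the peptide on MATalpha yeast. Mating (16 h, 30 °C) was followed by selection of diploids and sequencing of their barcodes. A regression on co-assayed BCL2-family reference pairs converts the normalised counts of each replicate to an apparent Kd. Mating was done six times.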

Variants are written as CDR1, CDR2 and CDR3 of the light chain (limits as in the source). Parent: KSSQSVLYESRNKNSVA, WASTRES, QQYHRLPLS. This list holds designs with more than six substitutions. Numbers give log10(Kd / nM), so 0 is 1 nM and 3 is 1 µM. Smaller is tighter. "nd" marks a missing value. The strain was present, yet no cells mated with the target were sequenced in that replicate, which points to weak or no binding. Values of this round are not directly comparable with the first-round values of the same sequences. Three control strains display no target. For all light chain designs, 4% of the pairings with them gave a signal, with a median of 2.64 and one signal in twenty below 1.59, so weak values seen in few replicates may be background. The authors averaged sequences with at least three values out of six and counted those with two or fewer as poor binders.

Variant RLQEDNQLGTNIGNNVA / EHQTVFD / QQYAHLPLQ showed nd, 1.48, nd, 0.49, 0.75, nd. Variant QINMEMNHDLDDEQNVA / DAMTEVK / QQYNRLPLS showed 1.99, 1.35, 2.00, 1.18, 1.21, 1.79. For KLTSVTGTEKVHGNNVA / EMETREK / QQYNRLPLA, the assay gave 0.20, 0.39, 0.75, 1.29, 0.66, 1.12. For TISQVMNSLTRHGNNVA / DLEERED / QQYFRLPLS, the assay gave 0.44, 0.52, 0.08, 0.59, 0.47, 0.63. With MISDLTYYGLRNVNSVA / DLSTRGS / QQYDRLPLS the result was nd, nd, nd, nd, nd, nd.

Variant TISQSALMTGLNRNSVA / QAEERLE / QQYNRLPLS showed 0.87, 0.41, 0.78, 0.78, 0.87, 0.89. For KLSPSFLYESRNKMSVA / NADTRLE / QQYHRLPLS, the assay gave -0.06, -0.20, -0.18, -0.35, -0.30, -0.06. With HISDLIMVASRNKNSVA / DESARPD / QQYHRLPLS the result was 0.22, 0.80, 0.56, 0.24, 0.13, 0.32. With KVSGFMRGLMMRKDSIA / DNETRQS / QQYDRLPLS the result was 0.93, nd, 0.30, nd, 0.28, 2.10. Variant MISDLTGYGSRNKNSVA / DLSTRGS / QQYHRLPLS showed 0.21, 0.29, 0.12, 0.20, 0.29, 0.39.

With KLMNSLGAFKQSEDNVA / EVEHKVA / QQYDHLPLT the result was 1.27, 1.22, 0.93, 0.99, 0.86, 1.55. Variant TISQLHNMGTFAINSVA / QASLRNE / QQYDRLPLI gave 2.59, 0.82, 1.05, 2.17, 1.31, 1.43. For HISIKLPGNWKMMDSVA / HSALRAE / QQYDRLPLM, the assay gave 0.55, 0.53, 0.59, 0.25, 0.60, 0.67. Variant KVPQSMLYESRNANNVA / AASQRES / QQYHRLPLS gave -0.69, -0.70, -0.75, -0.94, -0.75, -0.44. For NMGGTKEMQSNEIGNIA / EMNERFA / QQYFQLPLS, the assay gave 1.11, 1.12, 1.12, 1.46, 1.40, 1.57.

With HLGMTLNTEMMKKNNVA / DLVTREN / QQYHRLPLS the result was 0.52, 0.20, 0.29, 0.13, 0.12, 0.15. With KLSGLMSSSKFAKDNVA / ENNTRED / QQYDRLPLS the result was 0.78, 0.79, 1.10, 0.54, 0.67, 1.54. Variant KISMHAGHMSMSRNNVA / EMVTREN / QQYDRLPLS showed 0.43, 0.45, 0.33, 0.16, 0.26, 0.42. For NLSIQNQPQNMSANNVA / QTESRCE / QQYNQLPLA, the assay gave nd, nd, nd, 2.71, nd, nd. Variant MMLSHSLEVQNINNAVA / EASMVYD / QQYGSLPLS gave nd, nd, 2.44, 2.67, nd, nd.

Variant HLTDTVMQGSYYRNSVA / QESTRAD / QQYHRLPLS showed 0.33, 0.14, -0.02, 0.11, 0.50, 0.58. Variant KLQCSEEYESRNFNSVA / QASTRNL / QQYHRLPLS showed 0.50, 0.28, 0.11, 0.39, 0.35, 0.56. Variant MITAMLRGVGRDKNSVA / NAQTRES / QHYNRLPLS gave 2.07, 1.75, 2.20, 2.23, 1.29, nd. Variant KWSMGVMGESRNFNSVA / NASTRES / QQYHRLPLS gave 0.08, -0.32, -0.30, -0.27, -0.21, -0.02. With QMTESDHGHNAGVGSIA / DATESME / QQYMHLPLS the result was 0.20, 0.22, 0.27, 0.07, 0.21, 0.43.

Variant ASSPSVMGEERNSNSVA / AASTREQ / QQYHRLPLS showed 0.24, -0.01, -0.11, -0.41, -0.22, -0.13. Variant TISQMTSLFSQSINNVA / EVSMREE / QQYDRLPLQ showed 0.89, 0.62, 0.67, 0.36, 0.38, 0.43. Variant KLANYMYQGGLVQANVA / EAKELWE / QQYGHLPLA gave 1.15, 1.00, 0.78, 0.98, 0.78, 0.93. With TISQVMNTLTRHGNNVA / DLQERES / QQYFRLPLS the result was 0.73, 0.93, 0.51, 0.31, 0.73, 0.83. With HMRMDCSGYQNYGKAIA / HGNMRHN / QQYSRLPFS the result was 1.37, 1.26, 2.10, 0.78, 1.88, 1.40.

For KVSNSVDGEDRNKNAVA / HASTRES / QQYHRLPLS, the assay gave 0.03, -0.27, -0.47, -0.34, -0.42, -0.25. Variant KLQQSVDYESRNKNAVA / EASTREQ / QQYHQLPLS showed 0.45, 0.21, 0.57, 0.25, 0.27, 0.30. Variant MLDNCQEGYYQKNNNVA / EMNARCY / QQYGRLPLM showed 1.52, 2.02, 2.86, 1.59, 2.28, 1.77. With SIRQVGCDNQRNHSNIA / DATQIEP / QQYSMLPLS the result was 0.91, 1.23, 1.10, 0.19, 1.18, 1.66. Variant KLSTLFYKESRNKNNVA / EMTTRGS / QQYDRLPLS showed nd, nd, nd, nd, nd, nd.

Variant IIDQIMYHGNKHANSIA / QASERLN / QQYHHLPLI showed 1.30, 1.26, 2.36, 1.20, 1.72, 1.78. With IVSQLMMWGLHAKNSIA / EAVTRYN / QQYERLPLF the result was 0.46, 0.48, 0.13, 0.15, 0.76, 0.37. With TLGQSTMVESYNKNSVA / QASTRCE / QDYHRLPLS the result was 2.38, 2.04, 2.25, 2.51, 3.08, 2.57. With KLYASTMLESHDKNSIA / DLSTRGN / QQYHRLPLS the result was 0.39, 0.40, 0.56, 0.27, 0.23, 0.49. For QLEVFPLQAGSTYQAIA / DASHRTP / QQYSRLPLV, the assay gave 0.41, 0.38, 0.26, 0.34, 0.24, 0.49.

Variant KLSQSVLYQMEMKNSVA / QASTRMS / QQYHRLPLS showed 0.21, 0.08, -0.10, 0.08, -0.05, 0.08. Variant KLSQVTHYESRNKNSIA / EMVTREK / QQYDRLPLS gave 2.66, 2.02, 1.67, 1.08, 0.67, 3.06. For QLAVERGQEYKAGAAIA / GKTTKEH / QQYAMLPLS, the assay gave 0.91, 0.76, 0.65, 0.66, 0.76, 0.70. With HMKDMPGQGPQTYSSIA / HAEIREP / QQYYRLPLM the result was -0.06, -0.15, -0.11, -0.18, -0.27, 0.00.

Top 7 of the variants detected in all replicates, tightest first:

{"CDR-L1": "KVPQSMLYESRNANNVA", "CDR-L2": "AASQRES", "CDR-L3": "QQYHRLPLS", "log10 Kd, replicates": "-0.69, -0.70, -0.75, -0.94, -0.75, -0.44"}
{"CDR-L1": "KVSNSVDGEDRNKNAVA", "CDR-L2": "HASTRES", "CDR-L3": "QQYHRLPLS", "log10 Kd, replicates": "0.03, -0.27, -0.47, -0.34, -0.42, -0.25"}
{"CDR-L1": "KLSPSFLYESRNKMSVA", "CDR-L2": "NADTRLE", "CDR-L3": "QQYHRLPLS", "log10 Kd, replicates": "-0.06, -0.20, -0.18, -0.35, -0.30, -0.06"}
{"CDR-L1": "KWSMGVMGESRNFNSVA", "CDR-L2": "NASTRES", "CDR-L3": "QQYHRLPLS", "log10 Kd, replicates": "0.08, -0.32, -0.30, -0.27, -0.21, -0.02"}
{"CDR-L1": "HMKDMPGQGPQTYSSIA", "CDR-L2": "HAEIREP", "CDR-L3": "QQYYRLPLM", "log10 Kd, replicates": "-0.06, -0.15, -0.11, -0.18, -0.27, 0.00"}
{"CDR-L1": "ASSPSVMGEERNSNSVA", "CDR-L2": "AASTREQ", "CDR-L3": "QQYHRLPLS", "log10 Kd, replicates": "0.24, -0.01, -0.11, -0.41, -0.22, -0.13"}
{"CDR-L1": "KLSQSVLYQMEMKNSVA", "CDR-L2": "QASTRMS", "CDR-L3": "QQYHRLPLS", "log10 Kd, replicates": "0.21, 0.08, -0.10, 0.08, -0.05, 0.08"}

Reference: Li et al. 2023, doi:10.1038/s41467-023-39022-2. File: FLAb, binding data.